Values quoted from earlier work, collected in patent US8206772B2, “Structured lipid compositions and methods of formulation thereof” (Kraft Foods Global Brands LLC, priority 2007, dated 2012).

Conditions: rats, 5 percent and 10 percent of the diet

tripropionin
nutritional value / toxicity when fed: toxic
